According to US12053459B2, “CDK2 inhibitors and methods of using the same” (Cedilla Therapeutics, Inc., priority 2021, dated 2024):

Key:
Kuramochi cells = assay: BrdU cell proliferation assay (colorimetric ELISA), Kuramochi cells; details: read-out: BrdU Cell Proliferation Assay IC50, class symbols A-D
Experimental: A BrdU assay was used as a measure of proliferation based on the DNA replication process of proliferating cells. BrdU, a pyrimidine analog, is added to the cell culture and incorporated into the DNA of proliferating cells. The presence of the BrdU analog was then measured through a colorimetric ELISA. After fixation and permeabilization of cells, peroxidase-conjugated antibody recognizing BrdU is added and allowed to incubate, followed by thorough washing to remove unbound antibody. In order to quantify the amount of bound antibody, peroxidase substrate is added and produces a color that can be measured at 450 nm. […]
On day 4, the plates were developed using the BrdU ELISA Cell Proliferation Assay according to manufacturer's instructions (Roche, 11647229001). […] Three washes with PBS were performed to remove any unbound antibody, followed by the addition of 100 μL of substrate solution to each well. […] was then added to halt the reaction, and plates were read out using an Envision spectrophotometer (Perkin Elmer) set to read 450 nm absorbance. Background absorbance values from empty wells were subtracted from all samples and then normalized to DMSO treated wells.

CDK2/Cyclin E1(14-475) = CDK2/Cyclin E1(14-475) (Homo sapiens, UniProt P24941); assay: Caliper LabChip EZ Reader mobility shift assay, inhibition of CDK2/Cyclin E1 activity; details: read-out: Caliper Assay IC50, class symbols A-D
Experimental: Inhibition of CDK2/Cyclin E1 activity in the presence of compounds of the present disclosure was evaluated using a Caliper LabChip® EZ Reader mobility shift assay. In the assay, activated CDK2/Cyclin E1 catalyzes the phosphorylation of a fluorescently tagged peptide 5-FAM-QSPKKG-CONH2 (PerkinElmer, FL Peptide 18) which induces a difference in capillary electrophoresis mobility. The peptide substrate and product were measured, and the conversion ratio was used to determine the inhibition (as % activity and IC50 values) of CDK2/Cyclin E1. Reactions contained 50 mM HEPES pH 7.5, 10 mM MgCl2, 1 mM EDTA, 2 mM DTT, 0.01% Brij35, 0.5 mg/mL BSA, 0.1% DMSO, 2.5 nM CDK2/Cyclin E1(14-475), 100 μM ATP, and 1.5 μM fluorescent peptide substrate.
Dose titrations of inhibitors in 100% DMSO were combined with 3.25 nM CDK2/Cyclin E1(14-475) and 130 μM of ATP in reaction buffer. The mixtures were incubated for 30 minutes before the addition of fluorescent peptide substrate to initiate the kinase reaction. The final conditions were 2.5 nM CDK2/Cyclin E1(14-475), 100 μM ATP, and 1.5 μM fluorescent peptide. The reactions were stopped after 100 minutes with the addition of EDTA (6 mM final EDTA concentration). The stopped reactions were analyzed on a Caliper LabChip® EZ Reader II. […]

`CNC(=O)[C@H](CCCc1ccccc1)NC(=O)C1CN(C(=O)Cc2c[nH]c3cc(Cl)ccc23)CC2CN(C(=O)c3cc[nH]n3)CC21` (stereo partly shown) was tested, and the IC50 (Kuramochi cells) was > 10 µM and the IC50 (CDK2/Cyclin E1(14-475)) was > 10 µM.
In the case of `CNC(=O)[C@H](CCCc1ccccc1)NC(=O)C1CN(C(=O)C2(c3c[nH]c4ccccc34)CC2)CC2CN(C(=O)c3ccc(OC(C)C)c(OC)c3)CC21` (stereo partly shown), the IC50 (Kuramochi cells) is reported as > 10 µM and the IC50 (CDK2/Cyclin E1(14-475)) is reported as 0.5 to 5 µM.
